Patent US20230303584A1, “4,5,6,7-TETRAHYDROTHIENO[2,3-C]PYRIDINE SUMO INHIBITORS AND USES THEREOF” (SUVALENT THERAPEUTICS INC., priority 2020, published 2023)

By UniProt entry, the sequences of proteins in these tests, tags left out.
UniProt Q9UBT2, whole entry: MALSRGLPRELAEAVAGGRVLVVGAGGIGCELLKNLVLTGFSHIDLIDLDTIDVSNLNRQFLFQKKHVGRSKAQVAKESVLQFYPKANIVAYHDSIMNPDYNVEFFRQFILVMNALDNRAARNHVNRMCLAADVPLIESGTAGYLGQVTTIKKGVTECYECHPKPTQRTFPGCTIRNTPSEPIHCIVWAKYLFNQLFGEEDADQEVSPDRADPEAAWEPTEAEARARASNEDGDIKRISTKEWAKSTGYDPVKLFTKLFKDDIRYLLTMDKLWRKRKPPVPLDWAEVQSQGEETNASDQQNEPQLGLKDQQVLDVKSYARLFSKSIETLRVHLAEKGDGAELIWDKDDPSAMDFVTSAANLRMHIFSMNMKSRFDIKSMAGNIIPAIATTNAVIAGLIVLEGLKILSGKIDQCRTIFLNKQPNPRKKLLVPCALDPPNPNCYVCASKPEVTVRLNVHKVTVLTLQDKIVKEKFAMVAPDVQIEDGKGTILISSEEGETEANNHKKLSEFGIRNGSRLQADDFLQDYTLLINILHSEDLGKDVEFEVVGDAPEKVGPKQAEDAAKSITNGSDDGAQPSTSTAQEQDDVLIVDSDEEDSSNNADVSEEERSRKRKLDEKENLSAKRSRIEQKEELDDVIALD
UniProt Q9UBE0, whole entry partner: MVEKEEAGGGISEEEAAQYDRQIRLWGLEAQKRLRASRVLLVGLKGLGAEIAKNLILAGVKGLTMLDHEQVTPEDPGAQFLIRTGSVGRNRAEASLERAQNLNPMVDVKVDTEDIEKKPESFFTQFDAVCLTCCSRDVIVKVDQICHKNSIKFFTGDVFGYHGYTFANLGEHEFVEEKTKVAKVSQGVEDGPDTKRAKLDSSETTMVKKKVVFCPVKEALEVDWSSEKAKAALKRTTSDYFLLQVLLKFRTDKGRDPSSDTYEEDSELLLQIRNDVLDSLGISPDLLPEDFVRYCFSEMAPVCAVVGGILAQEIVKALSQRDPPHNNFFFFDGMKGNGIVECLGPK

Tests used:
[1] = target: SAE1 (Homo sapiens (Human), UniProt Q9UBT2); assay: SAE high throughput biochemical (HTRF) assay; conditions: for IC50: read-out: 15 min preincubation HTRF IC50 (uM) Ave, 100 µM ATP; for HTRF percent of control (POC) @ 25 µM: single concentration 25 µM
Procedure: Assay buffer was prepared [50 mM HEPES, pH 7.5, 0.1% BSA and 10 mM MgCl2] as was the Stop Buffer [100 mM HEPES, pH 7.5, 0.05% Tween20, and 410 mM KF]. The 2x Reaction Buffer [80 nM SUMO-GST, 80 nM UBC9-His, 200 µM ATP and diluted in Assay Buffer] and Antibody Reaction Mix [13.34 nM anti-GST XL665, 1.66 nM anti-His EuK and Diluted in Stop Buffer] were also prepared. Compounds were dissolved at 200x in DMSO in a 384-well plate. Serial dilutions were performed in DMSO for each compound, and then each concentration was diluted another 50-fold in Assay Buffer, to 4x the final concentration. 2.5 µL of each concentration was transferred into its own well in a 384-well plate. SAE1 was then diluted to 4x in Assay Buffer, and 2.5 µL of 4x SAE1 was mixed into each compound-containing well. After incubating for 15 minutes at room temperature, 5 µL of 2x Reaction Buffer was mixed into every well. Then after another 45 minutes at room temperature, 10 µL of Antibody Reaction Mix was added and mixed into every well. This plate was then read on an HTRF-compatible plate reader after 2 hours at room temperature, and again after sitting at room temperature overnight. [Final Component Concentrations: SAE1: 12.5 nM; SUMO-GST: 40 nM; UBC9-His: 40 nM; Anti-GST-XL665: 6.67 nM; Anti-His-EuK: 0.83 nM; and ATP: 100 µM ] Alternatively, the compounds are tested at a single concentration of 25 micromolar and the percent of control is measured.

[2] = test system: SUMO 2/3 conjugates (sumoylation levels) in HCT-116 cells; assay: HCT-116 4 hour cell assay, immunoblot of SUMO 2/3 conjugates; conditions: read-out: Cell HCT-116 Western SUMO 2/3 4 h IC50 (uM) Ave, 4 h treatment, Western blot
Procedure: This protocol describes the procedures used to assess the effects of compounds of interest on sumoylation levels. Immunoblot of SUMO ⅔ conjugates are performed and IC50 curves are generated upon quantification of sumoylations bands. HCT-1 16 cells are seeded in a 12 well plate (500,000 cells/well). The following day the cells are treated with compounds of interest (resuspended in DMSO) for 4 hours (11 concentrations with a three-fold dilution; starting concentration 25 µM) Following 4 hours of incubation the cells are washed with ice cold PBS 1X and protein extraction is performed with RIPA buffer supplemented with phosphatases and proteases inhibitors, 25 mM of NEM and 50 units/mL of Benzonase . Samples undergo centrifugation at 13,000 RPM, 4° C., for 10 minutes and the supernatant is collected. Protein quantification is performed using BCA. Non-Reducing Laemmli Buffer is added to the samples. Samples are heated at 75° C. for 10 minutes, and are centrifuged for 3 minutes at 9000 RPM Nupage 4-12% Bis Tris gels and 1x MOPS buffer (Fisher Scientific) + 1x NuPAGE Antioxidant (Invitrogen) are used to perform the SDS-PAGE gel electrophoresis (20 to 40 µg of proteins are loaded in the gels). Proteins are then transferred to PVDF membranes and the level of total proteins are measured by staining with Revert Total Protein Stain and the fluorescent bands are acquired using the LI-COR FC (700 nm for 1 min) Membranes are blocked for 5 minutes with Bio-Rad Blocking Buffer and are subsequently incubated over night at 4° C. with Anti-Sumo 2-3 mAb (MBL #M114-3, 1:1000 in Bio-Rad Blocking Buffer, 0.2% Tween 20) Membranes are washed with 1X TBS-T (3 times for 5 minutes) and sumoylation is detected using Li-cor IRDye 800CW Goat anti-Mouse IgG secondary antibody (1:10,000 dilution) upon 1 hour of incubation in blocking buffer with 0.2% Tween 20 and 0.01% SDS. After the incubation, the membranes are washed with 1X TBS-T (3 times for 5 minutes). To visualize the fluorescent bands the membranes are scanned with LI-COR FC (700 nm for 1 min and […] for 2 mins) Sumoylation levels are quantified upon normalization with total protein levels, using the LI-COR Image Studio Lite 5.2 Software.

## CN(C)C/C=C/C(=O)N1Cc2sc(Cl)cc2[C@H](c2ccccc2-c2cn(C)nc2C(F)(F)F)C1
[1]
  IC50: 1.01 µM
[2]
  IC50: 1.58 µM

## [2H]C([2H])([2H])n1cc(-c2ccccc2[C@@H]2CN(C(=O)C=C)Cc3sc(Cl)cc32)c(C(F)(F)F)n1
[1]
  IC50: 0.26 µM
[2]
  IC50: 0.58 µM

## CCn1cc(-c2ccccc2[C@@H]2CN(C(=O)/C=C/C3CCCN3C)Cc3sc(Cl)cc32)c(C(F)(F)F)n1 (stereo partly drawn)
[1]
  IC50: 2.59 µM
[2]
  IC50: 0.96 µM

## C=CC(=O)N1Cc2sc(Cl)cc2[C@H](c2ccccc2-c2cn(C3CN(C)C3)nc2C(F)(F)F)C1
[1]
  IC50: > 25 µM

## C=CC(=O)N1Cc2sc(Cl)cc2[C@H](c2ccccc2-c2cnn(CC)c2)C1
[1]
  IC50: 10.2 µM

## C=CC(=O)N1Cc2sccc2[C@H](c2ccccc2-c2cn(CC)nc2C(F)(F)F)C1
[1]
  IC50: 0.88 µM

## C=CC(=O)N1Cc2sc(Cl)cc2C(c2ccccc2-c2cccnc2C(F)(F)F)C1 (single isomer, unassigned)
[1]
  IC50: 1.28 µM

## C=CC(=O)N1Cc2sc(Cl)cc2[C@H](c2ccccc2-c2cn(CCC)nc2C(F)(F)F)C1
[1]
  IC50: 0.31 µM
[2]
  IC50: 0.51 µM

## C=CC(=O)N1Cc2sc(Cl)cc2C(c2ccccc2-c2ccn(C)n2)C1 (stereo not drawn)
[1]; 15 min preincubation
  HTRF percent of control (POC) @ 25 µM: 17.03 POC @ 25 µM

## C=CC(=O)N1Cc2sc(Cl)cc2C(c2ccccc2-c2cn(C)nc2C2CC2)C1 (stereo not drawn)
[1]
  IC50: 1.06 µM
[1]; single concentration printed as 25 mM, 15 min preincubation
  HTRF percent of control (POC) @ 25 mM (so in the source): 13.76 POC

## C=CC(=O)N1Cc2sc(Cl)cc2C(c2ccccc2-c2cn(C(C)C)nc2C(F)(F)F)C1 (stereo not drawn)
[1]
  IC50: 0.39 µM

## C=CC(=O)N1Cc2sc(Cl)cc2C(c2ccccc2-c2cc(C)nc(C)n2)C1 (stereo not drawn)
[1]; 15 min preincubation
  HTRF percent of control (POC) @ 25 µM: 14.18 POC @ 25 µM

## [2H]C([2H])([2H])n1cc(-c2ccccc2[C@@H]2CN(C(=O)/C=C/CN(C)C)Cc3sc(Cl)cc32)c(C(F)(F)F)n1
[1]
  IC50: 0.83 µM
[2]
  IC50: 0.94 µM

## CN(C)C/C=C/C(=O)N1Cc2sc(Cl)cc2[C@H](c2ccccc2-c2cn(CCC#N)nc2C(F)(F)F)C1
[1]
  IC50: 1.18 µM

## [2H]C1([2H])c2sc(Cl)cc2[C@H](c2ccccc2-c2cn(CC)nc2C(F)(F)F)CN1C(=O)/C=C/CN(C)C
[1]
  IC50: 1.3 µM
